Target: human CB1 (Homo sapiens, UniProt P21554)
Format: biochemical
Details: operational model of allosterism; probe CP55,940; no saturation at 100 µM

Amino acid sequences for entries named in this document (tags omitted).
UniProt P21554, whole entry: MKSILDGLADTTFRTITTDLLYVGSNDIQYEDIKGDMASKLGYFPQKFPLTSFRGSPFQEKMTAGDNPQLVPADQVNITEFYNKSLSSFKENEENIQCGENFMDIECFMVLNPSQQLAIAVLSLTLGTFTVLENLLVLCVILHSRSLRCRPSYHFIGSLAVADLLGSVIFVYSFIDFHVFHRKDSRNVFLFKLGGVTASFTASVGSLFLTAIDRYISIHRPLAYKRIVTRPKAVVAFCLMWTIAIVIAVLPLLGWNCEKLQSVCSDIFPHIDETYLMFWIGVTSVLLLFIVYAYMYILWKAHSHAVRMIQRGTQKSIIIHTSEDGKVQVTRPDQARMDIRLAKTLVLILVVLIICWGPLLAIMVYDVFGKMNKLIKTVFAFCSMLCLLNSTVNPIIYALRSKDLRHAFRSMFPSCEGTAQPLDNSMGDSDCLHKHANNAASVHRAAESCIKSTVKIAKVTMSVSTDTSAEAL

SMILES: O=C(NCCc1ccc(N2CCCCC2)cc1)Nc1ccc(Cl)cc1 [Compound 9, 1-(4-Chlorophenyl)-3-{2-[4-(piperidin-1-yl)phenyl]ethyl}-urea]
- logKb: −4.4 ± 0.5

— article PMC8506265 (Bioorganic & medicinal chemistry, 2021)
